Test results as given in patent publication US11305012B2, “Binding molecules specific for HER3 and uses thereof” (MedImmune, LLC, priority 2013, dated 2022).
Entries after “also recorded” stand apart in the source; their conditions may differ.

Columns and labels:
[1] = tested on: HER3, pHER3 and pAKT in SW620, SW480, Colo205, LOVO, HCT15, Caco-2; experiment: HRG-stimulated HER3 signaling in CRC tumor cell lines (Western); assay type: cell-based, human; settings: antibodies 10 μg/mL, gefitinib 5 μM, HRG 50 ng/mL
Description: In the presence of the HER3 ligand heregulin (HRG), HER3 heterodimerizes with EGFR or HER2, which leads to phosphorylation of HER3 and transmission of an oncogenic signal via phosphoinositide 3 kinase (PI3K) and protein kinase B (PKB), also known as AKT. A collection of CRC models were characterized to determine which receptor tyrosine kinase, EGFR or HER2, is the major driver of signaling through HER3. […] Briefly, cells were seeded into 24-well plates at a density of 1.5×10^5 cells per well. […] After 5-6 hours of incubation at 37° C., HRG was added at 50 ng/mL into one set of cells for 15 minutes at 37° C. All cells were then washed with cold PBS and lysed by the addition of 60 μL of 2×SDS (sodium dodecyl sulfate) sample buffer (Invitrogen). Lysates were transferred to 1.5 mL tubes and boiled for 5 minutes followed by chilling on ice for 2 minutes. Equal volumes (20 μL) of protein samples were resolved in NuPAGE Novex Bis-Tris gels (Invitrogen) before transfer to polyvinylidene fluoride (PVDF) membranes (Invitrogen). […] After washing, protein bands were detected on X-ray film by using SuperSignal West Pico Chemiluminescent Substrate (Pierce/Thermo Scientific).

[2] = tested on: human Detroit562 Head and Neck xenograft; experiment: Subcutaneous human Detroit562 head and neck xenograft model; assay type: in vivo, mouse; settings: Detroit562, 2C2 3 mg/kg, cetuximab 10 mg/kg
Description: (§1) Xenografts were established by subcutaneously injecting 5×10^6 cells per mouse into the right flanks of 4- to 6-week-old athymic nu/nu mice. Tumors were allowed to grow up to 200 mm^3 before randomization for efficacy studies. […] Caliper measurements were used to calculate tumor volumes using the formula: tumor volume=π÷6(length×width×width) • for tumors grown in mice.

[3] = tested on: CAL27 head and neck tumor model; experiment: Subcutaneous human CAL27 head and neck xenograft model; assay type: in vivo, mouse; settings: CAL27, 30 mg/kg twice per week
Description: as §1

[4] = tested on: human HT-29 colorectal xenograft; experiment: Subcutaneous human HT-29 CRC xenograft model; assay type: in vivo, mouse; settings: HT-29, 10 mg/kg alone
Description: as §1

[5] = tested on: human HCT-116 colorectal xenograft; experiment: Subcutaneous human HCT-116 CRC xenograft model; assay type: in vivo, mouse; settings: HCT-116, 10 mg/kg
Description: as §1

[6] = tested on: human LOVO colorectal xenograft; experiment: Subcutaneous human LOVO CRC xenograft model; assay type: in vivo, mouse; settings: 10 mg/kg
Description: as §1, with “Human LOVO colorectal carcinoma cells (ATCC No. CCL-229) were maintained at 37° C. in a 5% CO2 incubator in HAM'S F12K medium containing 4.5 g/L glucose, L-glutamine, sodium pyruvate and 10% fetal bovine serum. Xenografts” for “Xenografts”

[7] = tested on: KNS-62 non-small cell lung cancer (NSCLC) xenografts; experiment: Human KNS-62 bronchial squamous cell carcinoma xenograft model; assay type: in vivo, mouse; settings: KNS-62, 10 mg/kg (each)
Description: Protocols similar to those described in section 5.1 above were carried out with KNS-62 cells as a xenograph model of bronchial squamous cell carcinoma (see, e.g., Takaki, T., J. Cancer Research and Clinical Oncology, 1980, 96(1): 27-33).
(§2) Treatment with antibodies were administered starting at about day 8 post-implantation of KNS-62 cells. […] Caliper measurements were used to calculate tumor volumes as described in section 5.1 above. Similarly, antitumor effects are expressed as percent delta tumor growth inhibition (TGI) as described in section 5.1 above.

HARA-B NSCLC xenografts = experiment: Human HARA-B squamous cell carcinoma xenograft model with cetuximab; assay type: in vivo, mouse; settings: 10 mg/kg (each)
Description: Protocols similar to those described in section 5.1 above were carried out with HARA-B cells as a xenograph model of squamous NSCLC.
as §2, with “approximately” for “about”, “12” for “8”, “HARA-B” for “KNS-62”

OE-21 xenografts = experiment: Human OE-21 head and neck cancer xenograft model; assay type: in vivo, mouse; settings: OE-21, 10 mg/kg (each)
Description: Protocols similar to those described in section 5.1 above were carried out with OE-21 cells as a xenograph model of head and neck cancer.
as §2, with “approximately” for “about”, “13” for “8”, “OE-21” for “KNS-62”

BT-474 and SkBR3 = experiment: PBMC-enabled ADCC assay; assay type: cell-based, human; settings: BT-474 and SkBR3, PBMC; data not shown
Description: ADCC is one recognized way through which a monoclonal antibody can confer its anti-tumor efficacy in vivo. […] 2C2-YTE was tested in CDC assays using human serum as a source of complement.

BT-474 xenografts = experiment: Orthotopic human BT-474 breast cancer xenograft model; assay type: in vivo, mouse; settings: BT-474 orthotopic, antibodies 30 mg/kg, lapatinib 100 mg/kg
Description: (§3) Orthotopic xenografts were established by injecting 1×10^7 cells per mouse (suspended in 50% matrigel) into the mammary fat pad on the right flank of 4 to 6-week-old athymic nu/nu mice. Estrogen pellets (0.36 mg) were placed under the skin of the left flank 1-2 days before cell injection. Tumors were allowed to grow up to 200 mm^3 before randomization for efficacy studies. […] Lapatinib was administered by oral gavaging at 100 mg per kilogram body weight. Caliper measurements were used to calculate tumor volumes using the formula: tumor volume=π÷6(length×width×width) • for tumors grown in mice.

[8] = tested on: human MCF-7 breast cancer xenograft; experiment: Orthotopic human MCF-7 breast cancer xenograft model; assay type: in vivo, mouse; settings: MCF-7 orthotopic, 10 mg/kg
Description: as §3, with “Human MCF-7 breast cancer cells were maintained at 37° C. in a 5% CO2 incubator in Optimem medium containing glutamax, 2.4/L sodium bicarbonate, Hepes and 5% fetal bovine serum. Orthotopic” for “Orthotopic”, “5×10^6” for “1×10^7”, “studies. 2C2, 2C2-YTE and trastuzumab monoclonal antibodies were administered intraperitoneally.” for “studies.”, “Paclitaxel” for “Lapatinib”, “intravenously” for “by oral gavaging”, “10” for “100”

MDA-MB-361 xenografts = experiment: Orthotopic human MDA-MB-361 breast cancer xenograft model; assay type: in vivo, mouse; settings: trastuzumab and rhuMAb 2C4 10 mg/kg, lapatinib 100 mg/kg twice daily, 2C2-YTE 30 mg/kg
Description: as §3, with “5×10^6” for “1×10^7”, “injection.” for “injection. Tumors were allowed to grow up to 200 mm^3 before randomization for efficacy studies.”

Substance | effect on HRG ligand-dependent signaling (HER3, pHER3, pAKT; in words) [1] | partial regressions [2] | TGI [3] [%] | anti-tumor activity (in words) [4] | anti-tumor efficacy (in words) [5] | anti-tumor efficacy (in words) [6] | anti-tumor efficacy (in words) [7] | anti-tumor efficacy (in words) (HARA-B NSCLC xenografts) | anti-tumor efficacy (in words) (OE-21 xenografts) | ADCC effect (in words) (BT-474 and SkBR3) | anti-tumor efficacy (in words) (BT-474 xenografts) | anti-tumor efficacy (in words) [8] | anti-tumor efficacy (in words) (MDA-MB-361 xenografts)
cetuximab [reference compound] | no effect | 5/10 | 75.0 | no measurable anti-tumor activity | no efficacy | comparable efficacy | no anti-tumor activity; also recorded: did not respond | no anti-tumor activity; also recorded: did not respond | modest anti-tumor activity |  |  |  | 
trastuzumab |  |  |  |  |  |  |  |  |  | significant tumor-killing effects | very active | did not demonstrate efficacy | showed anti-tumor efficacy
